SMILES strings stand for the structures.

A short description of this series: Therapeutic index, ratio of LD50 for mouse allografted with mouse ADJ/PC6 cells to ED90 for mouse ADJ/PC6 cells allografted in mouse.
Turning to `C[C@@H]1CCN[P@@+]([O-])(N(CCCl)CCCl)O1`, the TI was found to be 56. As to `C[C@H]1CCO[P@+]([O-])(N(CCCl)CCCl)N1`, the TI turned out to be 51. Turning to `C[C@@H]1CCO[P@+]([O-])(N(CCCl)CCCl)N1`, the TI was 57.

Consider `O=P1(N(CCCl)CCCl)NCCC(C(F)(F)F)O1` (stereo unspecified), for which the TI was 29.

As to `O=P1(N(CCCl)CCCl)NCC(Br)CO1` (stereo unspecified), the TI is 25. For `C[C@H]1CCN[P@@+]([O-])(N(CCCl)CCCl)O1`, the TI was found to be 42.

Values taken from ChEMBL document CHEMBL3227956 (J Med Chem, 1979).
